Data published in patent publication US20050202078A1, “Vesicle-encapsulated corticosteroids for the treatment of cancer” (priority 2002, published 2005).

Assay: Analysis of amount of PLP or PL in tissues by HPLC
Conditions: 24 hours after injection of free PLP

With “prednisolone disodium phosphate [free PLP]” the “PLP or PL in liver, spleen and tumor tissue” value was “Neither PLP nor PL was detected”.
